The source of these data is patent publication US20260103455A1, “ULK3 INHIBITORS AND USES THEREOF” (H. LEE MOFFITT CANCER CENTER AND RESEARCH INSTITUTE, INC., priority 2022, published 2026).

Chains of the proteins cited; added tags and fusions are not shown. Lines headed by an entry give the natural chain unless they say otherwise; changes in a name come on top.
UniProt O60674: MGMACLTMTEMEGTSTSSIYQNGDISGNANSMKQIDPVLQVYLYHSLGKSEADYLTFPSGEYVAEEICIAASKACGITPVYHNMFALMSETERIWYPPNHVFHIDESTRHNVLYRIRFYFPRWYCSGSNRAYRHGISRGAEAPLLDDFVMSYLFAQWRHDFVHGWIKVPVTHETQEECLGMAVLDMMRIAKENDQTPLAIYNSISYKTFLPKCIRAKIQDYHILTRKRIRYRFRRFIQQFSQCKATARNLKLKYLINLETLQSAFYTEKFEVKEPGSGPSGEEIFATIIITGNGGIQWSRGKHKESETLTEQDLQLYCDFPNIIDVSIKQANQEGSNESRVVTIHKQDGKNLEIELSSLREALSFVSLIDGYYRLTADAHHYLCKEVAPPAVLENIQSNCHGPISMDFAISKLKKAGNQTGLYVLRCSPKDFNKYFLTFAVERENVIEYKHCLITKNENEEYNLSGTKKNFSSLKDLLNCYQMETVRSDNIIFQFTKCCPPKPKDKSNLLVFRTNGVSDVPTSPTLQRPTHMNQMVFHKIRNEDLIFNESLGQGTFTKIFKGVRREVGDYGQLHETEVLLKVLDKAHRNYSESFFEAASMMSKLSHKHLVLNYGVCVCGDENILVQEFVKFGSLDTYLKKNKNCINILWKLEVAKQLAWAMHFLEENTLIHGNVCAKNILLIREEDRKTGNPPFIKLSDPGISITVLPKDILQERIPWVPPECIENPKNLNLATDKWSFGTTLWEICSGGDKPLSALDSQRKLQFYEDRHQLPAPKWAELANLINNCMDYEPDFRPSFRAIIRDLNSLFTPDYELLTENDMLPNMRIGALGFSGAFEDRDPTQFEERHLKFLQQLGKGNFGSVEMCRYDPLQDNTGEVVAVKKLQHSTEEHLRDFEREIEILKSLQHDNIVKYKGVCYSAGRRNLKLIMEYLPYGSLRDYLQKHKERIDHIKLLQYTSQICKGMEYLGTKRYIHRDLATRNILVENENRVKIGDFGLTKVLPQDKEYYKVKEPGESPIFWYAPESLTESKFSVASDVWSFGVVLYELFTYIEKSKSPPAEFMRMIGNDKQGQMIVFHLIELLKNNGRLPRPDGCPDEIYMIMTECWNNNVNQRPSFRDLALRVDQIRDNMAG

In this test the target is JAK2 (Homo sapiens, UniProt O60674). Briefly: DSF (JAK2) thermal shift. The test is classed as binding.

In the case of `N#CCNC(=O)c1ccc(-c2nc(Nc3ccc(N4CCOCC4)cc3)ncc2F)cc1` [GM1-034, N-(Cyanomethyl)-4-(5-fluoro-2-((4-morpholinophenyl)amino)pyrimidin-4-yl)benzamide], the “DSF (JAK2) ΔTm (° C.)” value was 1.4 °C.
